Only some compounds are listed: those with a hit (about 1.3% of all), similar ones and a draw of the others.
SR-BI uptake up – activators of SR-BI mediated DiI-HDL uptake, primary screen, ldlA[mSR-BI] CHO cells, DiI fluorescence; 3 h; 100 = double the neutral-control signal; activation, % at 12.5 µM; actives 0.096% (n = 320,000);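 active = mean replicate activation of at least 60% and every replicate at or above 60%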;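 also: 0% = median plate neutral-control signal and 100% = twice that signal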
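Test system: SR-BI-overexpressing, LDLR-lacking CHO cells; Also added: labelled HDL, 10 µg/mL; Measured by: bottom-read cell fluorescence after medium removal, ex 550/em 595 nm; Timing: 3 h uptake period with compound, 37 °C; Buffer or medium: F12, 0.5% BSA, 25 mM HEPES; Doses: single compound concentration, delivered by pin transfer.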
INS-1E GSIS act – GLuc luminescence reporter in INS-1E cells, primary screen for activators of glucose-dependent secretion of insulin | INS-1E GLuc reporter insulin secretion, 2-3 h | activation, % at 16.6 µM | actives 0.61% (n = 370,000) | AID 743287, 2014;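 active = lowest replicate activation of at least 40%, so every replicate reaches that level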;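 also: 0% = median of neutral control wells and 100% = median of IBMX positive control wells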
UUG fidelity – alters start codon recognition fidelity in yeast; AID 602363; activity score, % at 18.7 µM; 350,000 tested, 0.13% active; S. cerevisiae UUG-firefly luciferase reporter, luminescence/redox ratio;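 active means replicate mean at a twofold rise or more, about +100% in these data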;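 further: firefly luciferase made from a UUG start codon reports start codon fidelity; reporter light over untreated wells divided by growth signal over untreated wells; some hits fall short of that in this replicate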
SR-BI HDL uptake – inhibitors of SR-BI mediated HDL lipid uptake, primary screen, ldlA[mSR-BI] cells, fluorescence, single point | Scavenger receptor class B member 1 (Mus musculus), Q61009 | AID 488896, 2010 | ldlA[mSR-BI] CHO cells, DiI-HDL uptake fluorescence, 3 h | actives 0.96% (n = 320,000) | inhibition, % at 12.5 µM;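 active = mean replicate inhibition of at least 70% and a set share of replicates each scoring 70 or more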;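 also: 0% = median of neutral control wells and 100% = median of positive control wells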
Numbers without * were called inactive.

Preview:
For O=C(c1cc2nc(-c3ccc(F)cc3)cc(C(F)(F)F)n2n1)N1CCCCC1c1cccnc1 (stereo unspecified) the results were SR-BI uptake up -82.4, INS-1E GSIS act 5.6, UUG fidelity -7.4 and SR-BI HDL uptake 82.4*.
`Cc1ccc(S(=O)(=O)N2CC[C@@H]3[C@H](CO)Nc4ccc(-c5ccc(C#N)cc5)cc4[C@@H]32)cc1` gave INS-1E GSIS act -31.3 and UUG fidelity -14.0.
Cc1ccc(S(=O)(=O)Nc2ccc3c(c2)C(=O)N([C@@H](C)CO)C[C@H](C)[C@H](CN(C)C(=O)NC(C)C)O3)cc1 was read as INS-1E GSIS act 10.6 and UUG fidelity -2.0.
C[C@H](CO)N1C[C@H](C)[C@@H](CN(C)CC2CCOCC2)Oc2cc(C3=CCCC3)ccc2S1(=O)=O was read as INS-1E GSIS act -16.4 and UUG fidelity -3.0.

The listing (from the top)
For O=C(c1cc2nc(-c3ccc(F)cc3)cc(C(F)(F)F)n2n1)N1CCCCC1c1cccnc1 (stereo unspecified) the results were SR-BI uptake up -82.4, INS-1E GSIS act 5.6, UUG fidelity -7.4 and SR-BI HDL uptake 82.4*.
`Cc1ccc(S(=O)(=O)N2CC[C@@H]3[C@H](CO)Nc4ccc(-c5ccc(C#N)cc5)cc4[C@@H]32)cc1` gave INS-1E GSIS act -31.3 and UUG fidelity -14.0.
Cc1ccc(S(=O)(=O)Nc2ccc3c(c2)C(=O)N([C@@H](C)CO)C[C@H](C)[C@H](CN(C)C(=O)NC(C)C)O3)cc1 was read as INS-1E GSIS act 10.6 and UUG fidelity -2.0.
C[C@H](CO)N1C[C@H](C)[C@@H](CN(C)CC2CCOCC2)Oc2cc(C3=CCCC3)ccc2S1(=O)=O was read as INS-1E GSIS act -16.4 and UUG fidelity -3.0.
`Oc1ccc2ccccc2c1/C=N/Nc1nnc(-c2ncc[nH]2)c2ccccc12` gave SR-BI uptake up -135.5, UUG fidelity -23.9 and SR-BI HDL uptake 135.6*.
Screening CCCC1CCC(c2ccc(C(=O)NN)cc2)CC1 (stereo unspecified) returned SR-BI uptake up 161.0*, INS-1E GSIS act -14.3 and SR-BI HDL uptake -160.9.
CCOc1ccc(CCNS(=O)(=O)c2cn(C)cn2)cc1OCC was read as SR-BI uptake up -1.8, INS-1E GSIS act 60.0*, UUG fidelity -3.9 and SR-BI HDL uptake 1.8.
`CCOc1cc(CNS(=O)(=O)c2cn(C)cn2)cc(OCC)c1OCC` gave SR-BI uptake up 7.1, INS-1E GSIS act -1.8, UUG fidelity -7.2 and SR-BI HDL uptake -7.1.
`CC(=O)c1nn(-c2ccc(Br)cc2)cc1C(=O)c1ccccc1` gave SR-BI uptake up -0.3, INS-1E GSIS act 54.2* and SR-BI HDL uptake 0.3.
For COCC(=O)N(C)C[C@H]1Oc2cc(C#CCN(C)C)ccc2S(=O)(=O)N([C@H](C)CO)C[C@@H]1C the results were INS-1E GSIS act 6.2 and UUG fidelity -3.4.
Screening C=CCn1c(SCC(=O)N2CCCC2)nc2c([nH]c3ccccc32)c1=O returned SR-BI uptake up 15.3, INS-1E GSIS act 8.9, UUG fidelity -16.3 and SR-BI HDL uptake -15.3.
`C=CCn1c(SCC(=O)N2CCN(C(=O)OCC)CC2)nc2c([nH]c3ccccc32)c1=O` gave INS-1E GSIS act 43.2* and UUG fidelity -28.8.
For CC(C)Cc1nc2oc3c(NCc4cccnc4)ncnc3c2c2c1CCC2 the results were SR-BI uptake up -58.4, INS-1E GSIS act 75.3*, UUG fidelity -15.3 and SR-BI HDL uptake 58.4.
`CC(C)c1nc2oc3c(NCc4cccnc4)ncnc3c2c2c1CCC2` gave SR-BI uptake up 4.8, UUG fidelity -13.9 and SR-BI HDL uptake -4.8.
For COCCCNc1nc2cc(OC)c(OC)cc2c2nc(-c3ccccc3)nn12 the results were SR-BI uptake up -86.2, INS-1E GSIS act -1.8, UUG fidelity -8.9 and SR-BI HDL uptake 86.2*.
For CC1=CC(C)(C)N2C(=O)C3(NCCc4c3[nH]c3ccccc43)c3cc(C)cc1c32 (stereo unspecified) the results were SR-BI uptake up -87.6, INS-1E GSIS act -15.2, UUG fidelity 1.2 and SR-BI HDL uptake 87.6*.
For O=C(C1=NN(c2ccccc2)C(=O)CC1)N1CCc2ccccc2C1 the results were SR-BI uptake up 0.7, INS-1E GSIS act 113.0*, UUG fidelity -5.5 and SR-BI HDL uptake -0.7.
Screening CC(C)NC(=O)C1=NN(c2ccccc2)C(=O)CC1 returned SR-BI uptake up 19.3, INS-1E GSIS act -3.2, UUG fidelity 1.5 and SR-BI HDL uptake -19.3.
C=CCn1c(N2CCCCCC2)nc2c1c(=O)[nH]c(=O)n2C was read as SR-BI uptake up 27.4, UUG fidelity -11.8 and SR-BI HDL uptake -27.4.
For CCCCn1c(N2CCCC2)nc2c1c(=O)[nH]c(=O)n2C the results were SR-BI uptake up 16.1, INS-1E GSIS act 84.3*, UUG fidelity -11.3 and SR-BI HDL uptake -16.1.
`C/C(Cl)=C\Cn1c(N2CCCC2)nc2c1c(=O)[nH]c(=O)n2C` gave SR-BI uptake up 9.3, INS-1E GSIS act 49.3*, UUG fidelity 2.4 and SR-BI HDL uptake -9.3.
O=[N+]([O-])c1ccc(NC(c2ccccc2)c2ccc3cccnc3c2O)cc1 (stereo unspecified) was read as SR-BI uptake up -80.5, UUG fidelity 16.0 and SR-BI HDL uptake 80.5*.
Screening CC(=O)NC(c1cccc([N+](=O)[O-])c1)c1ccc2cccnc2c1O (stereo unspecified) returned SR-BI uptake up 9.5, INS-1E GSIS act -22.2, UUG fidelity -23.1 and SR-BI HDL uptake -9.5.
COc1ccc(N2C(=O)CC(Sc3nc(C)cc(C)c3C#N)C2=O)cc1 (stereo unspecified) was read as SR-BI uptake up 22.2, INS-1E GSIS act 63.1*, UUG fidelity -15.8 and SR-BI HDL uptake -22.1.
For CCCCC1OC23CCCCC2C(C#N)(C(=N)O3)C1(C#N)C#N (stereo unspecified) the results were SR-BI uptake up 80.8* and SR-BI HDL uptake -80.8.
`CCCCC1OC23CCCCC2C(C#N)(C#N)C1(C#N)C(=N)O3` (stereo unspecified) gave SR-BI uptake up 35.4, INS-1E GSIS act -7.6, UUG fidelity -7.8 and SR-BI HDL uptake -35.4.
Screening COc1ccc(NC(=O)COC(=O)COc2cccc(Br)c2)cc1OC returned SR-BI uptake up 5.2, INS-1E GSIS act 7.6, UUG fidelity 0.2 and SR-BI HDL uptake -5.2.
For O=C(COC(=O)COc1cccc(Br)c1)Nc1c(Cl)cccc1Cl the results were SR-BI uptake up 373.6*, INS-1E GSIS act 8.2 and SR-BI HDL uptake -373.6.
For c1ccc(Oc2ccccc2-c2cc(NCCc3cccnc3)n3nccc3n2)cc1 the results were INS-1E GSIS act 53.4* and UUG fidelity -13.4.
Screening c1ccc(Oc2ccc(-c3cc(NCCc4cccnc4)n4nccc4n3)cc2)cc1 returned INS-1E GSIS act 31.5 and UUG fidelity -12.2.
`CCN1CCc2c(OCc3ccccc3)cccc2C1=O` gave SR-BI uptake up -80.1, INS-1E GSIS act 6.5 and SR-BI HDL uptake 80.1*.
`COc1ccc(N2CCN(c3oc(COc4ccc(Cl)cc4Cl)nc3C#N)CC2)cc1` gave SR-BI uptake up 1.5, INS-1E GSIS act -24.5, UUG fidelity -9.0 and SR-BI HDL uptake -1.5.
`N#Cc1nc(COc2ccc(Cl)cc2Cl)oc1N1CCN(c2ccccc2)CC1` gave SR-BI uptake up 117.5*, INS-1E GSIS act -17.4, UUG fidelity -12.5 and SR-BI HDL uptake -117.5.
Screening O=S(=O)(c1ccc(NCCCO)nc1)N1CCOCC1 returned SR-BI uptake up 27.3, INS-1E GSIS act 48.8*, UUG fidelity -19.8 and SR-BI HDL uptake -27.3.
Screening C[C@H](CO)N1C[C@H](C)[C@@H](CN(C)CC2CCCCC2)Oc2ccc(NS(=O)(=O)c3cn(C)cn3)cc2C1=O returned INS-1E GSIS act -2.9 and UUG fidelity -3.5.
